Measured values published in PubChem BioAssay AID623870 (Broad Institute, 2012).
The entries are a selection whose mix differs from that of the whole data set. Activity calls are given as the source filed them.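 How the source made its calls: active means mean inhibition of replicates at least 50% and at least half of replicates each reaching 50%; inconclusive means half or more replicates reach 50% but mean below 50%; inactive means the rest.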

Biological target: Transforming acidic coiled-coil-containing protein 3 (Homo sapiens) (UniProt Q9Y6A5)
Assay: disruptors of ARNT/TACC3 protein interaction, primary screen, biochemical, AlphaScreen, single concentration (AID 623870);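 further: 0% = complete ARNT plus TACC3 wells and 100% = ARNT alone without TACC3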
Settings: AlphaScreen His-ARNT PAS-B/GST-TACC3 binding, luminescence; at 9.99 µM; active compounds read high; TACC3 fragment carries E629A point mutation

SMILES | inhibition
CCCN1CCC(Nc2cc(OC)cc(OC)c2)CC1 | inactive: 42.3%
Cc1cc(N(CCCl)CCCl)ccc1C=O | inactive: -6.13%
c1ccc(CN2CCC(Nc3ccccc3)CC2)cc1 | inactive: -12%
CN(C)C1(CNC(=O)c2cccc(C#N)c2)CCCCC1 | inactive: -0.826%
CC(C)(C)OC(=O)N1CCC(N(C(=O)c2ccccc2)c2ccc(Cl)cc2)CC1 | inactive: 14.4%
N#Cc1ccc(C(=O)NCC2(N3CCCCC3)CCCCC2)cc1 | inactive: -6.71%
O=C(OC1CN2CCC1CC2)C1c2ccccc2C=Cc2ccccc21 (configuration not stated) | inactive: 6.84%
N/C(=N\O)c1c(N)no[n+]1[O-] | inactive: 2.71%
CCOC(=O)N1CCC(Nc2ccc(C)cc2)CC1 | inactive: -2.2%
COc1cc(C(=O)NCC2(N3CCOCC3)CCCCC2)cc(OC)c1C | inactive: -1.63%
CN1CCC(Nc2ccc(Cl)cc2)CC1 | inactive: 0.175%
CCC(CO)(C(=O)OC1CN2CCC1CC2)c1ccccc1 (configuration not stated) | inactive: -0.56%
COc1cc(OC)cc(C(=O)NCC2(N3CCOCC3)CCCCC2)c1 | inactive: -1.22%
COc1cccc(C(=O)N(c2cc(C)cc(C)c2)C2CCN(C(=O)OC(C)(C)C)CC2)c1 | inactive: -1.52%
CCCOc1ccc(C(=O)NCC2(N(C)C)CCCCC2)cc1 | inactive: -14.5%
O=C(O)C1(Nc2ccccc2)CCN(Cc2ccccc2)CC1 | inactive: -2.32%
CN1CCC(Nc2ccc(F)c(Cl)c2)CC1 | inactive: -4.44%
CCOc1ncccc1C(=O)NCC1(N2CCOCC2)CCCCC1 | inactive: -4.02%
CN(C)c1ccc(C(=O)NCC2(N3CCCCC3)CCCCC2)cc1 | inactive: 13.5%
Cn1c(=O)[nH]cc(N(CCCl)CCCl)c1=O | active: 13.4%
O=C(NCC1(N2CCCCC2)CCCCC1)c1ccco1 | inactive: 2.71%
CCN1CCC(Nc2cccc(F)c2)CC1 | inactive: -9.76%
Cc1ccccc1NC1(C#N)CCN(Cc2ccccc2)CC1 | inactive: -0.055%

SMILES | inhibition
Cc1ccc(NC2(C#N)CCN(Cc3ccccc3)CC2)cc1 | inactive: -1.28%
Fc1ccccc1NC1CCN(Cc2ccccc2)CC1 | inactive: 3.52%
Cc1ccc(C(=O)NCC2(N3CCCCC3)CCCCC2)o1 | inactive: 1.74%
COc1cc(OC)cc(C(=O)NCC2(N3CCCCC3)CCCCC2)c1 | inactive: -1.97%
CC(=O)N(c1ccccc1)C1CCNCC1 | inactive: -5.91%
CCOC(=O)N1CCC(Nc2cccc(C)c2)CC1 | inactive: 2.83%
COc1cc(C(=O)NCC2(N(C)C)CCCCC2)ccc1OC(F)F | inactive: 10.2%
COc1ccc(NC2CCN(CCc3ccccc3)CC2)c(OC)c1 | inactive: -1.66%
CCOC(=O)N1CCC(Nc2ccc(F)cc2)CC1 | inactive: -13%
O=P1(N(CCCl)CCCl)SCCCS1 | inactive: 17.1%
CCCCOc1ccc(C(=O)NCC2(N3CCOCC3)CCCCC2)cc1 | inactive: 1.86%
O=C(NCC1(N2CCCCC2)CCCCC1)c1ccc(F)cc1 | inactive: -4.71%
CCOc1ccc(C)cc1CN(CCCl)CCCl | inactive: -1.47%
O=C1CCN(Cc2ccccc2)CC1 | inactive: -3.63%
CCOC(=O)N1CCC(Nc2ccc(OC)cc2)CC1 | inactive: 2.47%
N#CC1(Nc2ccccc2)CCN(Cc2ccccc2)CC1 | inactive: -7.32%
O=C(OC1CN2CCC1CC2)C1c2ccccc2Oc2ccccc21 (configuration not stated) | inactive: 5.36%
O=C(NCC1(N2CCOCC2)CCCCC1)c1cc2ccccc2o1 | inactive: -1.41%
Cc1cc(C)cc(N(C(=O)c2ccccc2)C2CCN(C(=O)OC(C)(C)C)CC2)c1 | inactive: -0.98%
O=C(NCC1(N2CCCCC2)CCCCC1)c1ccc(Cl)nc1 | inactive: 0.734%
Cc1cccc(NC2(C#N)CCN(Cc3ccccc3)CC2)c1 | inactive: -2.55%
CSc1ccccc1C(=O)NCC1(N2CCCCC2)CCCCC1 | inactive: 3.61%
O=C(NCC1(N2CCCCC2)CCCCC1)c1ccc(=O)[nH]c1 | inactive: -1.5%

SMILES | inhibition
COc1ccc(C(=O)NCC2(N3CCCCC3)CCCCC2)c(OC)c1OC | inactive: -1.39%
CC(C)(C)OC(=O)N1CCC(N(C(=O)c2ccccc2)c2ccc(F)cc2)CC1 | inactive: -13.2%
COc1ccc(C(=O)NCC2(N3CCCCC3)CCCCC2)cc1 | inactive: 0.951%
CCCOc1ccc(C(=O)NCC2(N(C)C)CCCCC2)cc1OC | inactive: 0.716%
CN1CCC(Nc2cccc(F)c2)CC1 | inactive: 16.7%
O=C(NCC1(N2CCCCC2)CCCCC1)c1cncc(Br)c1 | inactive: 1.46%
O=C(NCC1(N2CCOCC2)CCCCC1)c1cc(F)c(F)cc1Cl | inactive: -0.765%
COc1cc(OC)c(C(=O)NCC2(N(C)C)CCCCC2)cc1OC | inactive: -1.48%
CN(C)c1cccc(C(=O)NCC2(N3CCCCC3)CCCCC2)c1 | inactive: 5.64%
COc1ccc(CN(CCCl)CCCl)cc1Cl | inactive: 2.98%
CC(C)c1ccc(NC2CCN(C(=O)OC(C)(C)C)CC2)cc1 | inactive: 18.2%
CN1CCN(CCOC(=O)C(O)(c2ccccc2)c2ccccc2)CC1 | inactive: -2.81%
COc1ccc(NC2CCN(C(=O)OC(C)(C)C)CC2)cc1 | inactive: 2.22%
CC(C)c1ccc(C(=O)NCC2(N3CCOCC3)CCCCC2)cc1 | inactive: 2.55%
O=C(NCC1(N2CCOCC2)CCCCC1)c1cc(=O)[nH]c2ccccc12 | inactive: 2.02%
O=C(NCC1(N2CCCCC2)CCCCC1)c1cccc(C(F)(F)F)c1 | inactive: 2.1%
CSc1ccc(C(=O)NCC2(N3CCOCC3)CCCCC2)cc1 | inactive: 4.64%
O=C(NCC1(N2CCCCC2)CCCCC1)c1cccc([N+](=O)[O-])c1 | inactive: 0.847%
N#CC1(Nc2ccccc2)CCN(CCc2ccccc2)CC1 | inactive: -2.67%
CCN1CCC(Nc2ccc(Cl)cc2)CC1 | inactive: 0.857%
O=C(NCC1(N2CCCCC2)CCCCC1)c1ccc(OC(F)F)cc1 | inactive: 4.57%
